Test results as given in patent US12102644B2, “Compounds and methods of promoting myelination” (Case Western Reserve University, priority 2019, dated 2024).

System: estrogen-dependent cell proliferation

CN(C)CCOc1ccc(/C(=C(/CCCl)c2ccccc2)c2ccccc2)cc1 [toremifene, Toremifene]
cellular antiestrogenic potency: comparable cellular antiestrogenic potency

OCCOc1ccc(/C(=C(/CCCl)c2ccccc2)c2ccccc2)cc1 [ospemifine, Ospemifene]
cellular antiestrogenic potency: comparable cellular antiestrogenic potency
